We go through 1 compound from patent US20250289804A1, “SUBSTITUTED INDOLE COMPOUNDS AND METHODS OF USE THEREOF” (NOVARTIS PHARMA AG, priority 2021, published 2025).

By UniProt entry, the sequences of proteins in these tests, tags left out. Residues count along the entry.
UniProt P00751, 260-764: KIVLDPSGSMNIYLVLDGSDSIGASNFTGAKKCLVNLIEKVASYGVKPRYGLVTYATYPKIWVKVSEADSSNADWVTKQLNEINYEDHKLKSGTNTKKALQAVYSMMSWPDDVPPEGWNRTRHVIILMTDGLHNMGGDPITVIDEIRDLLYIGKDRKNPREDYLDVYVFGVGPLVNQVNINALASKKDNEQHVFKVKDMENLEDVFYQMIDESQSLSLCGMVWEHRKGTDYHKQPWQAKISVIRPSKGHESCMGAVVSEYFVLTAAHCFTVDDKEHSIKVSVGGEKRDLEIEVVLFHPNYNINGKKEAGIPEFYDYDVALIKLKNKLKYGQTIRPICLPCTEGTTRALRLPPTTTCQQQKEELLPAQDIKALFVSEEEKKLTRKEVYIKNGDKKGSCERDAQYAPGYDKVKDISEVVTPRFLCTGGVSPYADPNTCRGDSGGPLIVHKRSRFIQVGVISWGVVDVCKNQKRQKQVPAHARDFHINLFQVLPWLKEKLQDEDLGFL

The assay concerns the target human C3bBb (Homo sapiens (Human), UniProt P00751). Put plainly: Human C3bBb enzyme assay (C3a generation from C3, ELISA). It is filed as biochemical. As to conditions: starred values: assay conducted with 1 nM C3b:Bb enzyme. As to the method: Compounds disclosed herein were evaluated for their potency to inhibit human C3bBb in a biochemical assay. To generate active C3bBb complex in vitro, purified human C3b (Complement Technology, A114), CFB (Complement Technology, A135) and CFD (Complement Technology, A136) were mixed in a 1:1:1 ratio to a final concentration of 1 μM each in the C3bBb assay buffer (PBS pH 7.4, 100 μM NiCl2, 0.05% (w/v) CHAPS). The reaction mix was incubated at room temperature for 30 minutes on a rotating platform. […] On the day of the enzyme assay, a reaction mixture containing 3 nM C3bBb complex and 1 μM purified human C3 (Complement Technology, A113) was prepared in the C3bBb assay buffer. Compounds were serial diluted 3-fold in 100% DMSO for a 10-point dose-response curve. A 0.5 μL aliquot of diluted compound solution was transferred to a conical bottom 96-well plate, before 49.5 μL of the reaction mix was added to each well to initiate the reaction. The plate was incubated for 1 hour at room temperature. […] The generation of C3a from C3 by the C3bBb complex was measured using the MicroVue C3a Plus EIA ELISA kit (Quidel, A031). The concentration of C3a from each well was calculated using a standard curve. Percent inhibition values were generated using the baseline (C3 only) and the maximum control (DMSO instead of compound), and IC50 of each compound was calculated using 4-parameter logistic regression.
A general note: An ELISA detects its analyte on a solid surface through an enzyme-linked reagent.

`COc1cc(C)c2[nH]ccc2c1CN1CC[C@H](C2CC2)C[C@H]1c1ccc(C(=O)O)cc1` [Example 41, 4-((2S,4S)-4-cyclopropyl-1-((5-methoxy-7-methyl-1H-indol-4-yl)methyl)piperidin-2-yl)benzoic acid] had an IC50 below 10 nM.

A word on the IC50: it is the midpoint of a concentration-inhibition curve. Higher therefore signals weaker potency.
